Measurements taken from PubChem BioAssay AID743398 (Broad Institute, 2014).
The entries are a selection whose mix differs from that of the whole data set. Active and inactive are the calls of the source. Cut-off read from the data, not from the text of the source: active = activation above about 30% (passing the limit was not always enough); inconclusive = no clear call, values can overlap the other calls.

Assay: Wnt/beta-catenin pathway activators, primary screen, cell-based, plate reader, single point (AID 743398);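 note: 0% = neutral control wells and 100% = positive control wells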
Settings: Wnt/beta-catenin reporter cell assay, activator, at 9.35 µM, hits give high values

Structure (SMILES) | activation
O=c1[nH]c2ccccc2n1C1CCN(C(c2ccccc2OC(F)(F)F)c2nnnn2C2CCCCC2)CC1 (stereo unspecified) | inactive: -4.54%
Cc1cc(C)cc(N(C(=O)c2ccccc2)C2CCN(C(=O)OC(C)(C)C)CC2)c1 | inactive: -1.83%
O=C(NCC1(N2CCCCC2)CCCCC1)c1ccc(Cl)s1 | inactive: -1.76%
N#CC1(Nc2ccccc2)CCN(Cc2ccccc2)CC1 | inactive: 18.4%
O=C(OC1CN2CCC1CC2)C1c2ccccc2Oc2ccccc21 (stereo unspecified) | inactive: 1.36%
O=c1[nH]c2ccccc2n1C1CCN(C(c2cc3ccccc3o2)c2nnnn2C2CCCCC2)CC1 (stereo unspecified) | inactive: -3.62%
COc1ccc(Cl)cc1C(=O)NCC1(N2CCOCC2)CCCCC1 | inactive: -1.09%
CCOC(=O)N1CCC(Nc2ccc(OC)cc2)CC1 | inactive: -9.5%
CCCCn1nnnc1C(c1ccc(OC)cc1)N1CCC(n2c(=O)[nH]c3ccccc32)CC1 (stereo unspecified) | inactive: 0.762%
COc1ccc(C(=O)NCC2(N3CCCCC3)CCCCC2)cc1 | inactive: -0.752%
COc1ccc(C(=O)NCC2(N3CCCCC3)CCCCC2)c(OC)c1OC | inactive: -0.339%
CC(C)(C)OC(=O)N1CCC(N(C(=O)c2ccccc2)c2ccc(F)cc2)CC1 | inactive: -0.57%
CCC(c1nnnn1C1CCCC1)N1CCC(n2c(=O)[nH]c3ccccc32)CC1 (stereo unspecified) | inactive: -0.278%
O=C(NCC1(N2CCCCC2)CCCCC1)c1ccc(=O)[nH]c1 | inactive: -0.966%
CCCCn1nnnc1C(CC)N1CCC(n2c(=O)[nH]c3ccccc32)CC1 (stereo unspecified) | inactive: -4.2%
O=C(NCC1(N2CCCCC2)CCCCC1)c1cccs1 | inactive: -1.27%
CCCCn1nnnc1C(c1cccs1)N1CCC(n2c(=O)[nH]c3ccccc32)CC1 (stereo unspecified) | inactive: -1.3%
CSc1ccccc1C(=O)NCC1(N2CCCCC2)CCCCC1 | inactive: -2.31%
Cc1cccc(NC2(C#N)CCN(Cc3ccccc3)CC2)c1 | inactive: -1.24%
O=c1[nH]c2ccccc2n1C1CCN(C(c2ccccc2)c2nnnn2C2CCCCC2)CC1 (stereo unspecified) | inactive: -2.77%
CCOC(=O)N1CCC(Nc2cccc(C)c2)CC1 | inactive: -0.123%
COc1cc(C(=O)NCC2(N(C)C)CCCCC2)ccc1OC(F)F | inactive: -2.49%
O=c1[nH]c2ccccc2n1C1CCN(C(c2cccc3ccccc23)c2nnnn2C2CCCC2)CC1 (stereo unspecified) | inactive: -1.8%
CC(C)(C)n1nnnc1C(c1ccccc1)N1CCC(n2c(=O)[nH]c3ccccc32)CC1 (stereo unspecified) | inactive: -1.59%
O=C1CCN(Cc2ccccc2)CC1 | inactive: -0.623%
CCOc1ccc(C)cc1CN(CCCl)CCCl | inactive: -3.69%

Structure (SMILES) | activation
CCCCn1nnnc1C(c1cc2ccccc2o1)N1CCC(n2c(=O)[nH]c3ccccc32)CC1 (stereo unspecified) | inactive: -3.88%
O=P1(N(CCCl)CCCl)SCCCS1 | inactive: -1.16%
CCCCOc1ccc(C(=O)NCC2(N3CCOCC3)CCCCC2)cc1 | inactive: 0.62%
O=C(NCC1(N2CCCCC2)CCCCC1)c1ccc(F)cc1 | inactive: -2.39%
CCOC(=O)N1CCC(Nc2ccc(F)cc2)CC1 | inactive: -1.16%
Cc1ccccc1NC1(C#N)CCN(Cc2ccccc2)CC1 | inactive: -3.22%
COc1ccc(C(c2nnnn2C2CCCCC2)N2CCC(n3c(=O)[nH]c4ccccc43)CC2)cc1 (stereo unspecified) | inactive: 2.27%
CCN1CCC(Nc2cccc(F)c2)CC1 | inactive: -0.798%
CC(C)(C)n1nnnc1C(c1ccnc2ccccc12)N1CCC(n2c(=O)[nH]c3ccccc32)CC1 (stereo unspecified) | inactive: -1.22%
O=C(NCC1(N2CCCCC2)CCCCC1)c1ccco1 | inactive: -1.84%
CN(C)c1ccc(C(=O)NCC2(N3CCCCC3)CCCCC2)cc1 | inactive: -0.563%
Cn1c(=O)[nH]cc(N(CCCl)CCCl)c1=O | inactive: -3.69%
COc1cccc(C(c2nnnn2C2CCCCC2)N2CCC(n3c(=O)[nH]c4ccccc43)CC2)c1OC (stereo unspecified) | inactive: -6.56%
CC(=O)N(c1ccccc1)C1CCNCC1 | inactive: -0.914%
CCC(c1nnnn1C1CCCCC1)N1CCC(n2c(=O)[nH]c3ccccc32)CC1 (stereo unspecified) | inactive: -0.583%
COc1cc(OC)cc(C(=O)NCC2(N3CCCCC3)CCCCC2)c1 | inactive: -0.237%
O=c1[nH]c2ccccc2n1C1CCN(C(c2ccnc3ccccc23)c2nnnn2C2CCCCC2)CC1 (stereo unspecified) | inactive: -0.723%
Cc1ccc(C(=O)NCC2(N3CCCCC3)CCCCC2)o1 | inactive: 0.266%
Fc1ccccc1NC1CCN(Cc2ccccc2)CC1 | inactive: -0.986%
Cc1ccc(NC2(C#N)CCN(Cc3ccccc3)CC2)cc1 | inactive: -0.768%
COc1cc(OC)cc(C(=O)NCC2(N3CCOCC3)CCCCC2)c1 | inactive: -1.9%
COc1cccc(C(c2nnnn2C2CCCC2)N2CCC(n3c(=O)[nH]c4ccccc43)CC2)c1OC (stereo unspecified) | inactive: -2.8%
COc1cccc(C(=O)N(c2cc(C)cc(C)c2)C2CCN(C(=O)OC(C)(C)C)CC2)c1 | inactive: -0.872%
CN1CCC(Nc2ccc(Cl)cc2)CC1 | inactive: 0.209%
CCOc1ncccc1C(=O)NCC1(N2CCOCC2)CCCCC1 | inactive: -2.53%
CN1CCC(Nc2ccc(F)c(Cl)c2)CC1 | inactive: -0.462%

Structure (SMILES) | activation
CC(C)(C)OC(=O)N1CCC(Nc2ccccc2)CC1 | inactive: -1.89%
O=C(O)C1(Nc2ccccc2)CCN(Cc2ccccc2)CC1 | inactive: -0.141%
NN(c1ccccc1)C1CCN(CCc2ccccc2)CC1 | inactive: -0.619%
O=c1[nH]c2ccccc2n1C1CCN(C(c2cc3ccccc3o2)c2nnnn2C2CCCC2)CC1 (stereo unspecified) | inactive: 1.19%
CCCOc1ccc(C(=O)NCC2(N(C)C)CCCCC2)cc1 | inactive: 0.184%
CCOC(=O)N1CCC(Nc2ccc(C)cc2)CC1 | inactive: 0.627%
COc1cccc(C(c2nnnn2C(C)(C)C)N2CCC(n3c(=O)[nH]c4ccccc43)CC2)c1OC (stereo unspecified) | inactive: -5.38%
O=c1[nH]c2ccccc2n1C1CCN(C(c2cccs2)c2nnnn2C2CCCC2)CC1 (stereo unspecified) | inactive: -1.91%
CCCCn1nnnc1C(c1cccc(OC)c1OC)N1CCC(n2c(=O)[nH]c3ccccc32)CC1 (stereo unspecified) | inactive: -3.96%
CCCCn1nnnc1C(c1ccccc1)N1CCC(n2c(=O)[nH]c3ccccc32)CC1 (stereo unspecified) | inactive: -1.48%
COc1cc(C(=O)NCC2(N3CCOCC3)CCCCC2)cc(OC)c1C | inactive: -1.99%
O=C(NCC1(N2CCOCC2)CCCCC1)c1cc(Br)ccc1Cl | inactive: 2.28%
O=c1[nH]c2ccccc2n1C1CCN(C(c2cccs2)c2nnnn2C2CCCCC2)CC1 (stereo unspecified) | inactive: -1.71%
COc1ccc(C(=O)NCC2(N3CCOCC3)CCCCC2)cc1OC | inactive: -1.55%
O=c1[nH]c2ccccc2n1C1CCN(C(c2ccnc3ccccc23)c2nnnn2C2CCCC2)CC1 (stereo unspecified) | inactive: -2.65%
CN(C)C1(CNC(=O)c2cccc(C#N)c2)CCCCC1 | inactive: -0.799%
C/C(N)=N\P(=O)(Oc1ccccc1)Oc1ccccc1 | inactive: -1.34%
c1ccc(CN2CCC(Nc3ccccc3)CC2)cc1 | inactive: -0.0495%
CCCN1CCC(Nc2cc(OC)cc(OC)c2)CC1 | inactive: 0.881%
O=c1[nH]c2ccccc2n1C1CCN(C(c2ccccc2)c2nnnn2C2CCCC2)CC1 (stereo unspecified) | inactive: -1.66%
Cc1cc(N(CCCl)CCCl)ccc1C=O | inactive: 1.49%
CC(C)(C)n1nnnc1C(c1cccc2ccccc12)N1CCC(n2c(=O)[nH]c3ccccc32)CC1 (stereo unspecified) | inactive: -4.41%
N#Cc1ccc(C(=O)NCC2(N3CCCCC3)CCCCC2)cc1 | inactive: -0.234%
CC(C)(C)OC(=O)N1CCC(N(C(=O)c2ccccc2)c2ccc(Cl)cc2)CC1 | inactive: -0.52%
